Measured values published in PubChem BioAssay AID2094 (Broad Institute, 2009).
Only a part is listed here, and it is no random draw. Calls of active or inactive are those of the source. No stated cut-off is given here; in the data, active means activity change below about -75% (passing the limit was not always enough); inconclusive means no clear call, values can overlap the other calls.

Experiment: modulation of AI-2 quorum-sensing luminescence – JMH597 strain, luminescence/OD600 ratio, primary screen (AID 2094);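 further: luminescence divided by OD600 gain over 9 h not by final OD600 alone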
Details: Vibrio harveyi JMH597 AI-2 luminescence/OD600 ratio, 9 h; at 7.5 µM; stronger effect = lower value; 0 = neutral-control median; strain lacks LuxN and CqsS sensors
In the case of `COC(=O)c1cc2c(s1)N=C(c1ccccc1)N(C)P2(=O)N1CCOCC1` (stereo unspecified), the activity change is reported as inactive: 15.7%. For `CC(=O)NC(SC(=S)N(CC(C)C)CC(C)C)C(Cl)(Cl)Cl` (stereo unspecified), the activity change was inactive: 16%. In the case of `Cc1ccc(OP(=O)(Nc2ccccn2)Oc2ccc(C)cc2)cc1`, the activity change is reported as inactive: 17.6%. For `O=C(OC1CN2CCC1CC2)c1ccccc1` (stereo unspecified), the activity change was inactive: 17.5%. In the case of `CCC(=O)N1C2C3N(C(=O)CC)C1C1N(C(=O)CC)C(C(N1C(=O)CC)N3C(=O)CC)N2C(=O)CC`, the activity change is reported as inactive: 20.2%. With `Cc1ccccc1OP(=O)(Nc1ccccn1)Oc1ccccc1C` the activity change was inactive: 7.72%. For `CN(C)C(=O)Oc1noc2ccccc12`, the activity change was inactive: 4%. With `CCNC(=S)/N=C(\N)N[N+](=O)[O-]` the activity change was inactive: 7.22%. With `O=C(NC1CCS(=O)(=O)C1)NP(=S)(Oc1ccccc1)Oc1ccccc1` (stereo unspecified) the activity change was inactive: 9.26%. With `c1ccc(-c2nn[nH]n2)c(-c2nn[nH]n2)c1` the activity change was inactive: 3.14%. In the case of `Cc1ccc(NP(=O)(Oc2cccc(C)c2)Oc2cccc(C)c2)nc1`, the activity change is reported as inactive: 7.36%. With `CCOC(=O)NC(Sc1ccccc1)C(Cl)(Cl)Cl` (stereo unspecified) the activity change was inactive: 2.12%. In the case of `CC(=O)c1ccc(N2CC2c2ccncc2)cc1` (stereo unspecified), the activity change is reported as inactive: 7.41%. For `C[C@H]1OP(=O)(Oc2ccccc2)C[C@@H]2O[C@@H]21` (stereo partly specified), the activity change was inactive: 21.5%. For `C[C@@H]1C=CCP(=O)(Oc2ccccc2)O1` (stereo partly specified), the activity change was inactive: 14.7%. For `CC(=O)Nc1ccc([As](=O)(O)O)c(O)c1`, the activity change was inactive: 19.1%. For `CC(=O)Nc1ccc(Oc2c([N+](=O)[O-])cc([N+](=O)[O-])cc2[N+](=O)[O-])cc1`, the activity change was inactive: 30.5%. For `O=P1(Nc2nc3ccc(Cl)cc3s2)COc2ccccc2O1` (stereo unspecified), the activity change was inactive: -7.59%. With `CCOc1ccc(C2=NCC(CBr)S2)cc1` (stereo unspecified) the activity change was inactive: 19.6%. For `CC(C)(C)C(=O)NC(Sc1ccccc1)C(Cl)(Cl)Cl` (stereo unspecified), the activity change was inactive: 11.8%. For `CCCOP(=S)(Nc1nc(N)cc(=O)[nH]1)OCCC`, the activity change was inactive: 13.6%. In the case of `Cc1ccc(NCCc2c([N+](=O)[O-])cc([N+](=O)[O-])cc2[N+](=O)[O-])cc1`, the activity change is reported as inactive: 19.1%. For `Nc1cccc2c([As](=O)(O)O)cccc12`, the activity change was inactive: 29.9%. With `COc1cc(C2NCCC3(OCCO3)C2(C)C)cc(OC)c1OC` (stereo unspecified) the activity change was inactive: 3.1%. With `CCOP(=O)(Nc1cccc2ccccc12)OCC` the activity change was inactive: 9.1%. With `O=[As](O)(O)c1cccnc1` the activity change was inactive: 8.27%. For `COc1cc(C(=O)NCC2(N3CCOCC3)CCCCC2)cc(Cl)c1OC(C)C`, the activity change was inactive: 24.1%. In the case of `CS(=O)(=O)c1ccc(Cl)c(NC(=O)COC(=O)C(O)(c2ccccc2)c2ccccc2)c1`, the activity change is reported as inactive: 24.8%. For `O=C(OC1CN2CCC1CC2)c1ccc(Cl)cc1` (stereo unspecified), the activity change was inactive: 13.6%. With `Cc1cccc(OCC(=O)OC2CN3CCC2CC3)c1` (stereo unspecified) the activity change was inactive: 11.7%. For `O=[As](O)(c1cccc(O)c1)c1cccc(O)c1`, the activity change was inactive: -6.08%. With `NC(=O)Nc1ccc([As](=O)(O)O)cc1` the activity change was inactive: 9.61%. For `O=[N+]([O-])c1ccc2c(c1)nnn2O`, the activity change was inactive: 10%. With `CN(C)C(=O)c1cc([N+](=O)[O-])cc2c1-c1c(cc([N+](=O)[O-])cc1[N+](=O)[O-])C2=O` the activity change was inactive: 63.2%. With `CN(C(=O)Cc1ccc(Cl)c(Cl)c1)[C@H]1CC[C@@]2(CCCO2)C[C@@H]1N1CCCC1` the activity change was inactive: -6.63%. In the case of `N#CCCN(C(=O)COC(=O)C(O)(c1ccccc1)c1ccccc1)c1ccc(F)cc1`, the activity change is reported as inactive: 26.3%. For `CCOP1(=S)c2c(C)nn(CCC#N)c2N=C(c2ccc(F)cc2)N1C` (stereo unspecified), the activity change was inactive: 12.6%. With `CN(C(=O)Cc1ccccc1)[C@@H]1CC[C@]2(CCCO2)C[C@H]1N1CCCC1` the activity change was inactive: 7.91%. For `CS(=O)(=O)c1cc([N+](=O)[O-])c2no[n+]([O-])c2c1`, the activity change was inactive: 28.6%. For `CCOP1(=S)c2c(C)nn(CCC#N)c2N=C(c2ccccc2F)N1C` (stereo unspecified), the activity change was inactive: 8.37%. For `O=P(Nc1nccs1)(Oc1ccccc1)Oc1ccccc1`, the activity change was inactive: 18.6%. With `O=P(Nc1nccs1)(c1ccccc1)c1nc2ccccc2s1` (stereo unspecified) the activity change was inactive: 27.9%. For `Nc1ccccc1[As](=O)(O)c1ccccc1`, the activity change was inactive: 20.1%. In the case of `O=C(O)COc1ccc([As](=O)(O)O)cc1[N+](=O)[O-]`, the activity change is reported as inactive: -10.8%. In the case of `O=P1(Nc2ncccn2)COc2ccccc2OC1`, the activity change is reported as inactive: 27.3%. With `Cc1ccc(OCC(=O)OC2CN3CCC2CC3)cc1` (stereo unspecified) the activity change was inactive: 31%. With `O=[As](O)(c1cccs1)c1cccs1` the activity change was inactive: 20.5%. For `O=P1(Nc2ccc(Br)cn2)COc2ccccc2OC1`, the activity change was inactive: 28.4%. For `Nc1cccc([As](=O)(O)c2ccccc2)c1`, the activity change was inactive: 20.2%. With `Cc1nn(-c2ccccc2)c2c1P(=O)(N1CCOCC1)N(C)C(c1ccccc1)=N2` (stereo unspecified) the activity change was inactive: 15.6%. In the case of `CC1CCC(C(C)C)C(OP(=O)(Nc2ccccn2)c2ccccc2)C1` (stereo unspecified), the activity change is reported as inactive: 18%.
